Test results: PubChem BioAssay AID588453 (National Center for Advancing Translational Sciences (NCATS), 2011)
This is a selection; strong and weak results do not stand in their true shares. Records with an inconclusive call do not appear. The source made the active and inactive calls. The call rests on the fitted dose curve; in most records, active means well fitted inhibition curve with a large enough effect; inconclusive means small, poorly fitted or top-dose-only effect; inactive means no such curve, though single readings can be large or run the other way.

Chains of the proteins cited; added tags and fusions are not shown.
UniProt O89049, whole entry: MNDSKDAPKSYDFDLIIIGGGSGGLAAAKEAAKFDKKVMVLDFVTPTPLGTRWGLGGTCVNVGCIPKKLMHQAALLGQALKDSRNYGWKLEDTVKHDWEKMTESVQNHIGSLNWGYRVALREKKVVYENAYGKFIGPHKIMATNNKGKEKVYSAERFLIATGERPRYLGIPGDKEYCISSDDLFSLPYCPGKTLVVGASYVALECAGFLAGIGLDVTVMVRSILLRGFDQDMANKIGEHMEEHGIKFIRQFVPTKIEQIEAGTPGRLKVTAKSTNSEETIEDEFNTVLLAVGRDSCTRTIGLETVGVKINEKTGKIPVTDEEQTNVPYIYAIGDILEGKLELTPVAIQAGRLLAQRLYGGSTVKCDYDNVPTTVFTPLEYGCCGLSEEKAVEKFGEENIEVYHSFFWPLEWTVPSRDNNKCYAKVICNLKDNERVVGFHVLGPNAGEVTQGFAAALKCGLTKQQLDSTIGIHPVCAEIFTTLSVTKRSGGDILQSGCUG

target: Thioredoxin reductase 1, cytoplasmic (Rattus norvegicus) (UniProt O89049); experiment: qHTS Assay for Inhibitors of Mammalian Selenoprotein Thioredoxin Reductase 1 (TrxR1): qHTS; conditions: recombinant rTrxR1, NADPH fluorescence consumption, selenite substrate; series mostly up to 114 µM; activity change, negative = inhibition: at the top concentration; further: nearly all actives have a fitted effect of over 65% in size
On the % scale 0 is the no-effect control and ±100 the full control effect; potency means the concentration at half of the fitted maximal effect.

| Compound | activity change, negative = inhibition | Potency |
| --- | --- | --- |
| Cc1c(C(c2ccc3c(c2)OCO3)c2c(C)n(C)n(-c3ccccc3)c2=O)c(=O)n(-c2ccccc2)n1C.O=[N+]([O-])c1cc([N+](=O)[O-])c(O)c([N+](=O)[O-])c1 | inactive: 0.725% |  |
| O=[N+]([O-])c1ccc(OP2(=O)COCCO2)cc1 (configuration not stated) | inactive: -24.3% |  |
| Cc1cc(-c2cccc3ccccc23)c(C)cn1.O=[N+]([O-])c1cc([N+](=O)[O-])c(O)c([N+](=O)[O-])c1 | inactive: -13.4% |  |
| CN(C)CCOC(=O)C(O)(c1ccccc1)C1CCCCC1 (configuration not stated) | inactive: -8.96% |  |
| COc1ccc(NP(C)(=O)Oc2ccccc2OC)cc1 (configuration not stated) | inactive: 4.59% [at 57.1 µM] |  |
| COc1ccc(OP(C)(=O)Nc2cccc(Br)c2)cc1 (configuration not stated) | inactive: 13.1% |  |
| Cc1ccccc1NP(C)(=O)Nc1ccccc1C | inactive: 10.9% [at 57.1 µM] |  |
| CP(=O)(Nc1ccc2c(c1)OCCO2)Oc1ccccc1 (configuration not stated) | inactive: 25.1% [at 57.1 µM] |  |
| CCOP(C)(=S)SCC(=O)NC(C)(CC)C(=O)O (configuration not stated) | inactive: 0.392% [at 57.1 µM] |  |
| O=C(OCCN1CCN(CCOCc2ccccc2)CC1)C(O)(c1ccccc1)c1ccccc1 | inactive: -13.8% |  |
| CP(=O)(Nc1ccccc1F)Oc1ccccc1 (configuration not stated) | inactive: 34.5% |  |
| CC(C)c1ccc(OP(C)(=O)Nc2ccc(SC(F)(F)F)cc2)cc1 (configuration not stated) | inactive: -1.46% |  |
| CCCCCOc1ccc(NP(C)(=O)Oc2ccc(Cl)cc2Cl)cc1 (configuration not stated) | inactive: -2.58% |  |
| CCN(CC)CCCOC(=O)C(O)(c1ccccc1)C1CCCCC1 (configuration not stated) | inactive: -15.8% |  |
| CCOC(=O)c1ccc(NP(C)(=O)Oc2ccc(F)cc2)cc1 (configuration not stated) | inactive: 7.34% |  |
| COc1ccc(OP(C)(=O)Nc2ccc(SC(F)(F)F)cc2)cc1 (configuration not stated) | inactive: 7.23% [at 57.1 µM] |  |
| CCCCCCCCCCCCCCCC1C[N+](C)(C)CCOP(C)(=O)O1 (configuration not stated) | inactive: 18.7% [at 11.4 µM] |  |
| CP(=O)(Nc1ccc(Cl)cc1Cl)Oc1ccccc1 (configuration not stated) | inactive: 7.07% |  |
| CP(=O)(OCCOc1ccccc1)OCCOc1ccccc1 | inactive: 17.1% |  |
| COc1ccccc1OP(C)(=O)Nc1ccc(C)c(C)c1 (configuration not stated) | inactive: -6.41% |  |
| COc1ccc(OP(C)(=O)Nc2ccccc2Br)cc1 (configuration not stated) | inactive: -5.95% |  |

| Compound | activity change, negative = inhibition | Potency |
| --- | --- | --- |
| Cc1cc(C)cc(OP(C)(=O)Nc2cccc(C(F)(F)F)c2)c1 (configuration not stated) | inactive: -7.18% [at 57.1 µM] |  |
| CP(=O)(Nc1ccccn1)Oc1ccccc1 (configuration not stated) | inactive: -3.66% [at 57.1 µM] |  |
| COc1ccccc1OP(C)(=O)Nc1ccc(C)cc1C (configuration not stated) | inactive: 21.8% [at 57.1 µM] |  |
| CCc1ccc(OP(C)(=O)O)cc1 | inactive: 0.25% |  |
| Cc1c(NP(C)(=O)Oc2ccc(C(C)C)cc2)c(=O)n(-c2ccccc2)n1C (configuration not stated) | inactive: 9.21% [at 57.1 µM] |  |
| O=[N+]([O-])c1cc([N+](=O)[O-])c(Nc2ccccn2)c([N+](=O)[O-])c1 | inactive: -5.11% [at 57.1 µM] |  |
| COc1ccc(OP(C)(=O)Nc2ccccn2)cc1 (configuration not stated) | inactive: 20.8% |  |
| CN(C)CCOC(=O)C(O)(c1ccccc1)C1CCCC1 (configuration not stated) | inactive: -2.14% |  |
| COc1ccccc1OP(C)(=O)Nc1ccc(Br)cc1 (configuration not stated) | inactive: 9.34% |  |
| CN(C)C(=O)c1c([N+](=O)[O-])cc([N+](=O)[O-])cc1[N+](=O)[O-] | inactive: 18.4% |  |
| COc1ccccc1OP(C)(=O)Nc1ccccc1Br (configuration not stated) | inactive: 11.6% [at 57.1 µM] |  |
| CC(C)(C)c1ccc(OP(C)(=O)O)cc1 | inactive: 5.88% |  |
| CP(=O)(Nc1ccc(Cl)cc1)Oc1ccc(F)cc1 (configuration not stated) | inactive: 11.4% |  |
| COc1ccccc1OP(C)(=O)Nc1c(C)n(C)n(-c2ccccc2)c1=O (configuration not stated) | inactive: -2% [at 57.1 µM] |  |
| O=C(OCCCN1CCCC1)C(O)(c1ccccc1)C1CCCCC1 (configuration not stated) | inactive: 6.39% [at 57.1 µM] |  |
| CP(=O)(Oc1ccccc1)N1CCOC1=O (configuration not stated) | inactive: 0.119% [at 57.1 µM] |  |
| CCc1ccc(OP(C)(=O)Nc2cccnc2)cc1 (configuration not stated) | inactive: 9.86% [at 57.1 µM] |  |
| CCN(CC)CC(O)COC(=O)C(O)(c1ccccc1)C1CCCCC1 (configuration not stated) | inactive: 7.39% |  |
| COc1ccc(OP(C)(=O)Nc2ccc(Br)cc2)cc1 (configuration not stated) | inactive: 7.69% |  |
| CCOC(=O)c1ccc(NP(C)(=O)Oc2ccc(Cl)cc2)cc1 (configuration not stated) | inactive: -5.69% |  |
| CP(=O)(OC12CC3CC(CC(C3)C1)C2)OC12CC3CC(CC(C3)C1)C2 | inactive: 19.7% |  |

| Compound | activity change, negative = inhibition | Potency |
| --- | --- | --- |
| Nc1ccc2c(ccc3cccnc32)n1.O=[N+]([O-])c1cc([N+](=O)[O-])c(O)c([N+](=O)[O-])c1 | inactive: -12.5% |  |
| CP(=O)(Nc1ccccc1Br)Oc1ccccc1 (configuration not stated) | inactive: 13.5% [at 57.1 µM] |  |
| COc1ccccc1OP(C)(=O)Nc1ccccc1 (configuration not stated) | inactive: 16.4% [at 57.1 µM] |  |
| CP(=S)(Nn1cnnc1)Oc1ccccc1 (configuration not stated) | inactive: -8.25% [at 57.1 µM] |  |
| CP(=O)(Nc1ccccn1)Oc1ccc(Cl)cc1 (configuration not stated) | inactive: 16.6% |  |
| CCOC(=O)c1ccc(NP(C)(=O)Oc2ccc(OC)cc2)cc1 (configuration not stated) | inactive: -4.37% |  |
| O=[N+]([O-])c1cc([N+](=O)[O-])c(O)c([N+](=O)[O-])c1.c1ccc(Oc2ccncc2)cc1 | inactive: -2.21% [at 57.1 µM] |  |
| CCOP(C)(=S)SCC(=O)NC(C)C(=O)O (configuration not stated) | inactive: 7.84% [at 57.1 µM] |  |
| CP(=O)(NC(=O)Nc1ccccc1)Oc1ccccc1 (configuration not stated) | inactive: 20.4% |  |
| CCc1ccc(OP(C)(=O)N2CCN(c3ccc([N+](=O)[O-])cc3)CC2)cc1 (configuration not stated) | inactive: 5.98% |  |
| Cc1cc(C)cc(OP(C)(=O)Nc2ccc(SC(F)(F)F)cc2)c1 (configuration not stated) | inactive: 1.79% [at 57.1 µM] |  |
| Cc1cccc(C)c1OP(C)(=O)Nc1ccc(SC(F)(F)F)cc1 (configuration not stated) | inactive: 8.59% [at 57.1 µM] |  |
| CP(=O)(Nc1ccc(SC(F)(F)F)cc1)Oc1ccc(Cl)cc1 (configuration not stated) | inactive: -2.85% |  |
| CP(=O)(Oc1ccccc1)OC(c1ccccc1)C(F)(F)F (configuration not stated) | inactive: 10.7% |  |
| CCN(CC)CCCOC(=O)C(O)(c1ccccc1)c1ccccc1 | inactive: 9.47% |  |
| Cc1cc(C)cc(OP(C)(N)=O)c1 (configuration not stated) | inactive: 36.1% [at 57.1 µM] |  |
| COc1ccccc1OP(C)(=O)Nc1cc(Cl)ccc1C (configuration not stated) | inactive: 16.8% [at 57.1 µM] |  |
| COc1ccc(OP(C)(=O)Nc2cccc(F)c2)cc1 (configuration not stated) | inactive: 5.12% [at 57.1 µM] |  |
| COc1ccccc1OP(C)(=O)Nc1ccc(C)cc1 (configuration not stated) | inactive: 1.13% |  |
| Cc1ccc(NP(C)(=O)Oc2ccccc2)c(C)c1 (configuration not stated) | inactive: 15.3% [at 57.1 µM] |  |
| CCOC(=O)c1ccc(NP(C)(=O)Oc2ccccc2)cc1 (configuration not stated) | inactive: 2.74% |  |

| Compound | activity change, negative = inhibition | Potency |
| --- | --- | --- |
| O=[N+]([O-])c1ccc2c(c1)C=Nc1ccccc1O2 | inactive: -5.04% |  |
| CC(C)(C)c1ccc(OP(C)(=O)Nc2ccc(SC(F)(F)F)cc2)cc1 (configuration not stated) | inactive: 1.1% |  |
| Cc1cccc(C)c1OP(C)(N)=O (configuration not stated) | inactive: -7.15% |  |
| O=[N+]([O-])c1cc([N+](=O)[O-])c(Nc2cccnc2)c([N+](=O)[O-])c1 |  | active: 10 µM |
| CC1=NCCc2c1[nH]c1ccccc21.O=[N+]([O-])c1cc([N+](=O)[O-])c(O)c([N+](=O)[O-])c1 | inactive: 0.733% |  |
| Cc1ccc(C)c(NP(C)(=O)Oc2ccccc2)c1 (configuration not stated) | inactive: -9.66% |  |
| Cc1cc(C)cc(OP(C)(=O)Nc2ccccn2)c1 (configuration not stated) | inactive: 4.32% |  |
| CP(=O)(Nc1cccc(Br)c1)Oc1ccccc1 (configuration not stated) | inactive: 5.01% |  |
| CCOC(=O)c1ccc(NP(C)(=O)Oc2cc(C)cc(C)c2)cc1 (configuration not stated) | inactive: -1.13% |  |
| Cc1cc(C)cc(OP(C)(=O)Nc2ccc(C)cc2C)c1 (configuration not stated) | inactive: 19.6% [at 57.1 µM] |  |
| COc1ccccc1OP(C)(=O)Nc1cccc(Br)c1 (configuration not stated) | inactive: 14.7% |  |
| Cc1nc2ccc3ccccc3c2s1.O=[N+]([O-])c1cc([N+](=O)[O-])c(O)c([N+](=O)[O-])c1 | inactive: -11.2% [at 57.1 µM] |  |
| O=[N+]([O-])c1cc([N+](=O)[O-])c(-c2cnn(-c3ccccc3)c2)c([N+](=O)[O-])c1 | inactive: -4.1% [at 57.1 µM] |  |
| CCCOc1ccc(NP(C)(=O)Oc2ccc(Cl)cc2)cc1 (configuration not stated) | inactive: 7.71% [at 57.1 µM] |  |
| CP(=O)(Nc1ccc(SC(F)(F)F)cc1)Oc1ccccc1 (configuration not stated) | inactive: -10.8% [at 57.1 µM] |  |
| COc1ccccc1OP(C)(=O)Nc1c(C)cccc1C (configuration not stated) | inactive: -1.01% |  |
| CN1CCCCC1COC(=O)C1(O)c2ccccc2CCc2ccccc21 (configuration not stated) | inactive: 9.96% |  |
| CC1=C2N=C(C=C3N=C(C(C)=C4[N-][C@@](C)([C@@H]5N=C1[C@](C)(CCC(=O)NC[C@@H](C)OP(=O)([O-])O[C@H]1[C@@H](O)[C@@H](n6cnc7cc(C)c(C)cc76)O[C@@H]1CO)[C@H]5CC(N)=O)[C@@](C)(CC(N)=O)[C@@H]4CCC(N)=O)[C@@](C)(CC(N)=O)[C@@H]3CCC(N)=O)C(C)(C)[C@@H]2CCC(N)=O.[C-]#N.[Co+3] | inactive: 5.89% |  |
| O=[N+]([O-])c1cc([N+](=O)[O-])c(Nc2nnnn2CCO)c([N+](=O)[O-])c1 |  | active: 20 µM |
